The values below come from US5453426A, “Sulfur-containing xanthine derivatives as adenosine antagonists” (priority 1994, dated 1995).

Amino acid sequences for entries named in this document (tags omitted).
UniProt P25099, whole entry, looked up: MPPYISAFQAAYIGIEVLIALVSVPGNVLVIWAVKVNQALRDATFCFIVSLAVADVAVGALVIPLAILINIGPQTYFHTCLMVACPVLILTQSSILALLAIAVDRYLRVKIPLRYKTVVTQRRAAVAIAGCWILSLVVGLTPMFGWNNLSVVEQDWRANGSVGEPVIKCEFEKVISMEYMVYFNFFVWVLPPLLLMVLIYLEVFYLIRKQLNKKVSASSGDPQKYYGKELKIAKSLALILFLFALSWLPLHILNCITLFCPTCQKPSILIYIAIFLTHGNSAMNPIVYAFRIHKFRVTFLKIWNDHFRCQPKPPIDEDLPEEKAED

SMILES strings stand for the structures.

One test has as its system adenosine receptor. The settings on record: background; cited from earlier work.
A further test deals with A1 adenosine receptors (Rattus norvegicus, UniProt P25099). Kind of test: Inhibition of binding of [3H]N6-phenylisopropyladenosine to A1 adenosine receptors in rat cerebral cortical membranes. The note with it: ratio of A2 (rat striatum) to A1 (rat cortex) Ki.

As for `Cn1c(=O)c2[nH]cnc2n(C)c1=O` [Compound 1a, theophylline], the “selectivity and strength as adenosine antagonists” value with adenosine receptor was “non-selective and relatively weak adenosine antagonists”. Further, the Ki (A2)/Ki (A1) on A1 adenosine receptors was 2.99.
